# scFv variants of Ab-14 (light chain) against a SARS-CoV-2 spike peptide

Target: peptide PDVDLGDISGINAS, taken from heptad repeat 2 (HR2) of SARS-CoV-2 spike.

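The parent was found by panning a naive human phage display library on the peptide. Designed CDR sequences, proposed from the first random library and measured here. Several design methods are mixed in this list. The assay is AlphaSeq: two haploid yeast populations carry antibody and antigen on their surface. Pairs that bind mate more often; barcode pairs of the diploids are counted by sequencing. Read counts were normalised to the haploid input and turned into Kd by a linear fit to BCL2-family pairs of known affinity, for each replicate. Mating was done six times.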

Parent: Ab-14, a human scFv built as VH, a (GGGGS)3 linker, VL. Only the CDRs of the light chain vary.
VH: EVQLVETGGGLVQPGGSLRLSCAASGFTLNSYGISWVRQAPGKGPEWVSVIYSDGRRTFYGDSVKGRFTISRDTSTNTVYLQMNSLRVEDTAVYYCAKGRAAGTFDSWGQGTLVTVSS
VL: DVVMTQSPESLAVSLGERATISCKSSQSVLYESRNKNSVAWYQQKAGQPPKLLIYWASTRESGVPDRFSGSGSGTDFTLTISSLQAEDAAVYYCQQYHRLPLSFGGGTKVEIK

Each variant is given by its three light chain CDRs, as the data file delimits them; those of the parent are KSSQSVLYESRNKNSVA, WASTRES, QQYHRLPLS.
Values are apparent Kd, the geometric mean of the replicates that gave a signal; lower means stronger binding.
"not detected" means that the variant was in the library but no mating with the target was seen in any replicate; the authors take this as a sign of poor binding, and no number exists.
A sequence measured in both rounds can read differently, since the two assays cover different ranges.
Nonspecific signal, from three strains lacking the peptide, appeared in 4% of pairings of all light chain designs, centred on 430 nM (5% of these signals below 38 nM); values are not corrected for it.
In the paper, a design with two or fewer of six values counts as a poor binder.
The parent sequence was in this pool as ten entries: three were never detected, three once, and four in most replicates, with averages from 2.2 nM to 240 nM.

| CDR-L1 | CDR-L2 | CDR-L3 | Kd (apparent) | detected |
|---|---|---|---|---|
| KIYYHEVGLVNGQNSIA | EQDQLTF | QQYSHLPLS | 7.1 nM | 1/6 |
| KSSQSVLYESENKNSVA | WASTRES | QQYHALPLS | 4.5 nM | 6/6 |
| KRSQSVLYESLNKNSVA | KASTRES | QQYHRLPLK | 39 nM | 3/6 |
| TIGQTLMYGMRNSSNVA | EVSERLN | QQYDRLPLI | 85 nM | 3/6 |
| KSLQSVLYESRNKNSVA | NASTRED | QQYHRLPLS | 4.3 nM | 6/6 |
| KLSQSMLYESRNKNNNA | WASTRES | QQYHRLPLS | not detected | 0/6 |
| KLSQYVGGESRNKSSLA | DNNTRES | QQYERLPLS | 120 nM | 6/6 |
| KMSQSVLYESRNSNSVA | DASTRES | QQYHRLPLS | 2.2 nM | 6/6 |
| KVLQSVCYEGRNKNSVA | HASTRED | QQYHRLPLS | 2.0 nM | 6/6 |
| KSGQEVLYESRNKNSVA | GASQRES | QQYHRLPLS | 900 pM | 6/6 |
| KSGQSFLQESRNKNSVA | GASMRES | QQYHRLPLS | 1.2 nM | 6/6 |
| TISQMTSLFSQSINNVA | EVSTRIE | QQYDRLPLV | 8.3 nM | 6/6 |
| KLYQSMGYLSRQKNSIA | DMSRREN | QQYHRLPLS | 1.3 nM | 6/6 |
| KLVESVLYESRQSNAVA | NASYREE | QQYHRLPLS | 1.1 nM | 6/6 |
| KLSQQNLYESRMKNSVA | MASQRES | QQYHRLPLS | not detected | 0/6 |
| KLRQSTLYESRNKNSVA | MASTRLS | QQYHRLPLS | 12 nM | 6/6 |
| QLSMITGHVSMSKNNVA | EMETRVN | QQYDRLPLS | not detected | 0/6 |
| NVSIEPPEGTRYWEAVA | DHSQRNN | QQYDQLPLS | 3.1 µM | 2/6 |
| HMYQSGLYESRNQNSVA | SASMRES | QQYHRLPLS | 29 nM | 4/6 |
| KLDQSTLYESRNKNSVA | GASTRES | QQYHRLPLS | 280 pM | 6/6 |
| KLQQSVLYESRNKNSVA | EASTRES | QDYHRLPLS | 600 pM | 6/6 |
| KASQSVDFESRNKNSVA | DASTRES | QQYHRLPLS | 470 pM | 6/6 |
| KVSQSQLYESRMKQSVA | HASQRES | QQYHRLPLS | 1.8 nM | 6/6 |
| KFNISKEGVTSEGKSIA | GAQTIDE | QQYDRLPLA | 17 nM | 6/6 |
| KFSWSVLYESRNCNSVA | WASERES | QQYHRLPLS | 20 nM | 6/6 |
| KSDQSWLYESRNLNSVA | WASTRES | QQYHRLPNS | not detected | 0/6 |
| KLSQSFLYESRNWNSVA | NASKRES | QQYHRLPLS | 780 pM | 6/6 |
| KFSQSVLYESRNKNSVA | WASTRAS | QQYHRLPLS | 9.4 nM | 6/6 |
| HMSMLTMMGMKQRNSVA | QMTMREN | QQYDRLPLV | 300 nM | 1/6 |
| QMTESDHGHNAGVGSIA | DATESME | QQYMHLPLS | 1.7 nM | 6/6 |
| KISQSYLGLSRNVNAVA | NASTRES | QQYHRLPLS | 2.5 nM | 6/6 |
| KLGDMVHTLSRNKNSIA | DMRTRES | QQYNRLPLS | 770 pM | 6/6 |
| KLSWSELYESRNKNSVA | NASTRMS | QQYHRLPLS | 640 pM | 6/6 |
| KLSQSWLYESRNKNSVA | NASTRCD | QQYHRLPLS | 860 pM | 6/6 |
| CSSQSVLYEARNKNSVA | WASTRES | QQYHRLPIS | 33 nM | 1/6 |
| KLAQSTLYESRNQNSVA | WASTRES | QQYHRLPLS | 1.6 nM | 6/6 |
| TISQMTSLFSQTINNVA | EVSTREN | QQYDRLPLS | 9.0 nM | 2/6 |
| KLPQSWLYESRNKNSVA | EASTRES | QQYHRLPLS | 710 pM | 6/6 |
| KSSIGYLYESRNKNSVA | AASTRES | QQYHRLPLS | 1.2 nM | 6/6 |
| MVNGHLVHQANRDNNIA | EAQMVAA | QDYHRLPLI | 24 nM | 6/6 |
| KVPQSVLYESRNKNSVA | NASTRES | QQYHRLPLS | 640 pM | 6/6 |
| SLSAMIQDWDSIHQNIA | EEHMKAQ | QQYNRLPLG | 5.9 nM | 6/6 |
| KLQQSELYESRNKNSVA | EASTRCS | QQYHRLPLS | 1.1 nM | 6/6 |
| KLSQSVLYESRNKNAVA | GASQRES | QQYHRLPLS | 340 pM | 6/6 |
| RLWAYTQGFFRNMQNIA | DISYRVT | QQYGRLPLS | not detected | 0/6 |
| KLSQSVLYESRNPNSVA | NASYRES | QQYHRLPLS | 870 pM | 6/6 |
| KMRVSLLQGIYRQDSVA | STDIRVL | QQYHHLPLS | 20 nM | 6/6 |
| NFSMSAATFVNEWSSIA | DAEITYD | QQYHRLPLV | 58 nM | 6/6 |
| HITYGMMVHGRHSSSIA | QAEERAK | QQYDRLPLI | 8.9 nM | 6/6 |
| GLSQSVLYESRNKNSVA | NASTRES | QQYHRLPLS | 320 pM | 6/6 |
| MLTRFNLENQGRSNNIA | DTNNVQE | QQYSRLPFA | 2.8 nM | 6/6 |
| KLSQSVMGWSRNKNSVA | NASTRES | QQYHRLPLS | 1.2 nM | 6/6 |
| SSTQSVLYESRNKNSVA | WASTRES | QQYHRLPLS | not detected | 0/6 |
| KLQASQEYWSRNKNSVA | QASTRET | QQYHRLPLS | 1.0 nM | 6/6 |
| KSSKSVLFESRNKNSVA | NASTRES | QQYHRLPLS | 27 nM | 6/6 |
| KLESRQYHFGADHQNIA | DAHISMN | QQYMHLPFT | 6.9 nM | 6/6 |
| HISEMIFAQMKARNSVA | ENNTRED | QQYDRLPLS | 440 nM | 6/6 |
| VFQQQWDGNTLTNSSVA | NVDERME | QQYNRLPLM | 640 nM | 3/6 |
| RLLGQNLQNMDKLNSIA | EQSVHYQ | QQYGRLPLT | 17 nM | 6/6 |
| SMSQSVLYESRNWNSVA | NASTRES | QQYHRLPLS | 970 pM | 6/6 |
| KISYNFLIESRNLNSVA | EMTTREY | QDYDRLPLS | 40 nM | 1/6 |
| KSSQSVMYESRNKNSVA | WASTRES | QQYYRLPLS | 60 nM | 6/6 |
| KLSQSQLYESRMKNSVA | NASTRES | QQYHRLPLS | 120 nM | 1/6 |

The first 7 entries again:

CDR-L1	CDR-L2	CDR-L3	Kd (apparent)	detected
KIYYHEVGLVNGQNSIA	EQDQLTF	QQYSHLPLS	7.1 nM	1/6
KSSQSVLYESENKNSVA	WASTRES	QQYHALPLS	4.5 nM	6/6
KRSQSVLYESLNKNSVA	KASTRES	QQYHRLPLK	39 nM	3/6
TIGQTLMYGMRNSSNVA	EVSERLN	QQYDRLPLI	85 nM	3/6
KSLQSVLYESRNKNSVA	NASTRED	QQYHRLPLS	4.3 nM	6/6
KLSQSMLYESRNKNNNA	WASTRES	QQYHRLPLS	not detected	0/6
KLSQYVGGESRNKSSLA	DNNTRES	QQYERLPLS	120 nM	6/6

From the AlphaSeq antibody data of Li et al. 2023 (doi:10.1038/s41467-023-39022-2), copy in the FLAb collection.